This note sets out measurements from patent US20070270462A1, “8-hydroxyquinoline compounds for treating a polyglutamine (polyQ)-expansion disease” (priority 2005, published 2007).

The test system of the assay is aggregated Htt. The assay is described as follows: Immunohistochemistry with anti-Htt aggregate Ab EM48 in R6/2 mouse brain. Particulars: R6/2 mice, oral CQ 30 mg/kg/day, 11-week old, striatum and motor cortex. The class given is in vivo. As for the experimental part: A colony of transgenic mice strain R6/2 that is heterozygous for htt exon1 (containing 145 CAG repeats) was maintained, with founders originating and available from The Jackson Laboratory (Bar Harbor, Me., USA). Male transgenic R6/2 mice were bred with background strain (B6CBAFI/J) females. Genotyping was done according to Hockly et al, Brain Res Bull 61, 469-479, 2003. CQ in water was orally administered to mice at 30 mg/kg/day starting at 3 weeks of age and continued until the mice were deceased or sacrificed for tissues. Littermate R6/2 mice were gavaged with water vehicle alone. At the end of CQ treatment mice were anesthetized and transcardially perfused with PBS followed by 4% v/v paraformaldehyde. Blood glucose levels were determined after at least 8 hrs of fasting in 11-week old mice (n=6 for wild-type, n=4 for vehicle-treated R6/2, n=6 for CQ-treated R6/2 littermates) using a 2300 STAT Plus glucose analyzer (YSI, Yellowsonte, Ohio, USA). Fasting blood insulin levels in animals fasted for 8 hrs were measured using an Ultra Sensitive Rat Insulin ELISA Kit (Crystal Chem, Inc., Downers Grove, Ill., USA) according to manufacturer's instructions. […]
It was then determined if CQ would also reduce mutant Htt accumulation in vivo using the HD transgenic mouse model R6/2.

Consider `Oc1c(I)cc(Cl)c2cccnc12` [CQ, 5-chloro-7-iodo-8-hydroxy-quinoline], for which the “accumulation of aggregated Htt by EM48 immunohistochemistry” value is “inhibited the accumulation of aggregated Htt in both the striatum and motor cortex”.
